“And” between values parts separate entries of the source, which are not always exact repeats. Equal values may be shown once. The entries are a selection whose mix differs from that of the whole data set. The source made the active and inactive calls. The call rests on the fitted dose curve; in most records, active means well fitted inhibition curve with a large enough effect; inconclusive means small, poorly fitted or top-dose-only effect; inactive means flat fitted curve, though single readings scatter.
On the % scale 0 is the no-effect control and ±100 the full control effect.

For this test, the system named is Uracil-DNA glycosylase. In words: Primary qHTS assay for inhibitors of Activation Induced Cytidine Deaminase (AID): UDG Counterscreen signal. Further: nearly all actives have a fitted effect of over 65% in size. As to conditions: FRET deamination/UDG coupled assay, UDG read, 4 h; at 115 µM (top of the series). From the text: Assay Provider (PI) Patricia Gearhart Ph.D.
National Institute on Aging
National Institute of Health (NIH), Bethesda, MD
Assay Provider (PI) Rahul Kohli Ph.D.
Perelman School of Medicine
University of Pennsylvania, Philadelphia, PA
Activation-Induced Deaminase (AID) is a cytosine deaminase which converts cytosine into uracil within stretches of ssDNA. The presence of uracil in DNA initiates a cascade of mutagenic DNA repair to introduce point mutations and DNA double strand breaks. Specific targeting of AID to the immunoglobulin heavy chain loci (Igh) promotes mutagenesis in the antibody variable region for somatic hypermutation (SHM) or switch regions leading to class switch recombination (CSR). However, AID also plays a role in accumulating unnecessary mutations across the genome. Mis-targeting of AID results in the initiation of tumor development and leads to greater drug resistance among cancer cells when continually expressed. To identify an AID inhibitor, a small molecule library will be screened in collaboration with NCATS core facility at NIH. To confirm biological function, inhibitors will be examined in an in vitro murine B-cell activation assay and subsequent secondary validation screens. Top molecules will be further screened to identify inhibitory efficacy against a wild type primary splenocytes assay. Using these approaches, we hope to identify a small molecule with great efficacy and low toxicity for use as a molecular probe to further characterize AID's intricacies, or even as a therapeutic.
A FRET based analysis of cytosine deamination, was developed to identify potential inhibitors of AID catalytic activity. This screen has two signal output, Read 1 evaluates the AID inhibition response. The second readout (Read 2) evaluates UDG response and is uses as a counterscreen to exclude false positive inhibitors. Inhibition in AID and inactivity in the UDG signal is the desired outcome for this assay.
SEQUENCE No. (e.g., 1, 2, 3, etc.); […] (e.g., Cells, Incubation, Reagent, etc.); VALUE; DESCRIPTION
1a; Reagent; 3 uL; [4/3x] 1 uM AID/2.67 U/mL UDG
1b; Reagent; 3 uL; 2 U/mL UDG
1c; Reagent; 3 uL; 1 uM AID
2a; Compound; 46 nL; Follow-up plates (0.64 uM - 10 mM)
2b; Control; 46 nL; ATA ([…] - 10 mM)
3; Time; 10 min; incubation at room temperature
5; Time; 4 hr; incubation at room temperature
6; Reagent; 4 uL; [2x] 250 mM NaOH
7; Time; 15 sec; centrifuge at 1000 rpm
8; Time; 30 min; incubation at room temperature
9a; Detection; fluorescence (Read 1: AID); EnVision (PerkinElmer) plate reader, 540 excitation and 590 emission filters
9b; Detection; fluorescence (Read 2: UDG); EnVision (PerkinElmer) plate reader, 560 excitation and 665 emission filters
NOTES (numbers refer to sequence above)
1a; Reagents were dispensed in a medium-binding black solid-bottom Greiner plates (789176F) using a BioRptr liquid dispenser. Dispense 3 uL of [4/3x] 1 uM AID (provided by Kohli lab) and [4/3x] 2 U/mL UDG (NEB M0280L) into columns 1, 2, 5 to 48.
1b; Dispense 3 uL of [4/3x] 2 U/mL UDG into column 3.
1c; Dispense 3 uL of [4/3x] 1 uM AID into column 4.
2a; Compound (7-points [uM] (0.64; 3.2; 16; 80; 400; 2,000; 10,000; 20,000) double pin-transferred (Dip Factor = 2) using the Kalypsys (Wako USA) pintool equipped with a 1536 pinhead for a final concentration range of 7.32 nM - 114 uM.
2b; 10 mM Aurintricarboxylic Acid (Sigma A1895) (ATA, 8-point, n = 2, 1:2.5 dilution in column 2) double pin-transferred (Dip Factor = 2) using the Kalypsys (Wako USA) pintool equipped with a 1536 pinhead for a [final] range of 186 nM - 114 uM.
3; Room temperature incubation.
4; Dispense 1 uL of substrate mixture from the Kohli lab [4x] […] DJC20 and [4x] 250 nM DJC23 into columns 1 to 48 .
5; Room temperature incubation.
6; Dispense 4 uL of substrate mixture [2x] 250 mM NaOH into columns 1 to 48.
7; Centrifugation step to remove bubbles.
8; Room temperature incubation
9a; Fluorescence signal (column label AID) was read using the EnVision plate reader. […]
(In general: Quantitative high-throughput screening tests each substance at several concentrations.)
`CN(CCCl)Cc1cc(Cl)c(NC2=NCCN2)c(Cl)c1`: the activity change, negative = inhibition is inactive: 7.7%.
The figure for `ClCCNC1C2CC3CC(C2)CC1C3` (stereo not drawn) is inactive: -10.6%.
The figure for `Fc1ccc(NC2=NCC(CI)S2)c(F)c1` (stereo not drawn) is inactive: 5.99%.
The same measure for `BrCC1CN=C(Nc2ccccc2)S1` (stereo not drawn): inactive: -1.03%; for `CN(C(=O)Cc1ccc(Cl)c(Cl)c1)[C@@H]1CC[C@]2(CCCO2)C[C@H]1N1CCCC1`: inactive: -7.91%; for `NNc1ccc([N+](=O)[O-])cc1[N+](=O)[O-]`: inactive: -21.4%.
Take `Cc1ccc(C(=O)NC(Sc2ccc(Cl)cc2)C(Cl)(Cl)Cl)cc1` (stereo not drawn): the activity change, negative = inhibition was inactive: -2.54%.
The figure for `CN(C(=O)Cc1ccccc1)[C@@H]1CC[C@]2(CCCO2)C[C@H]1N1CCCC1` is inactive: -4.33%; for `Cc1ccc(C(=O)NC(Sc2ccccc2)C(Cl)(Cl)Cl)cc1` (stereo not drawn) it is inactive: -2.27%.
The same measure for `Fc1ccc(CNC2=NCC(CBr)S2)cc1` (stereo not drawn): inactive: -1.62%; for `O=C(NC(Sc1ccccc1)C(Cl)(Cl)Cl)c1ccc(Cl)cc1` (stereo not drawn): inactive: 2.72%.
The same measure for `O=C(NC(Sc1ccc(Cl)cc1)C(Cl)(Cl)Cl)c1ccccc1` (stereo not drawn): inactive: 1.5%; for `Cc1cccc(C(=O)NC(Sc2ccccc2)C(Cl)(Cl)Cl)c1` (stereo not drawn): inactive: 1.71%.
For the compound `Clc1cccc(NC2=NCC(CBr)S2)c1` (stereo not drawn), the activity change, negative = inhibition was inactive: 1.16%.
The same measure for `O=C(/C=C/c1ccccc1)NC(Sc1ccc(Cl)cc1)C(Cl)(Cl)Cl` (stereo not drawn): inactive: -11.6%; for `CN(C(=O)Cc1ccc(Cl)c(Cl)c1)[C@H]1CCCC[C@@H]1N1CCCC1`: inactive: 4.33% and inactive: -1.1%; for `BrCCNCCc1ccncc1`: inactive: -1.37%.
The figure for `CN(C(=O)Cc1ccc(Cl)c(Cl)c1)[C@@H]1CCCC[C@@H]1N1CCCC1` is inactive: -4.42%.
